Tests used:
HLA-B*5401 = HLA-B*5401 (Homo sapiens, UniProt P01889, A329T/C349S/D138N/D201E/E176V/E187T/E204Q/E69G/I76V/K202T/L119W/R155S/R180L/S121T/S35A/S48A/V127L/V306I/V36M/Y140L); experiment: HLA class I binding assay, B*5401
HLA-B*5301 = HLA-B*5301 (Homo sapiens, UniProt P01889, A329T/A93T/A95T/C349S/D201E/D98Y/E176V/E187L/E204Q/E69T/G107R/I218V/K202T/L105A/L119I/N104I/Q94N/R106L/R155S/R180L/S101N/S121R/S35A/S48A/T118I/V127L/V306I/V36M/Y140S/Y91F); experiment: HLA class I binding assay, B*5301
HLA-B*3501 = HLA-B*3501 (Homo sapiens, UniProt P01889, A329T/A93T/A95T/C349S/D201E/D98Y/E176V/E187L/E204Q/E69T/I218V/K202T/L119I/Q94N/R155S/R180L/S121R/S35A/S48A/T118I/V127L/V306I/V36M/Y140S/Y91F); experiment: HLA class I binding assay, B*3501
HLA-A*3101 = HLA-A*3101 (Homo sapiens, UniProt P04439, A270S/D185E/E176V/E277Q/F33T/G231S/G80R/H175R/I121M/I218V/I322F/K168Q/L300P/L318F/M331R/P217A/Q94H/R138Q/T323A/T345S/T97I/V358M); experiment: HLA class I binding assay, A*3101
HLA-A*3301 = HLA-A*3301 (Homo sapiens, UniProt P04439, A270S/D185E/E176V/E277Q/E87N/F33T/G231S/H175R/I121M/I218V/I322F/K168Q/K210R/L300P/L318F/M331R/P217A/Q86R/Q94H/R138Q/T323A/T345S/T97I/V358M/Y195H); experiment: HLA class I binding assay, A*3301
HLA-A*6801 = HLA-A*6801 (Homo sapiens, UniProt P04439, A269V/D185E/E176V/E277Q/E87N/F33Y/G231S/I121M/I166T/I218V/L180W/L300P/L318F/N151K/P208A/P217A/Q86R/R169H/T345S); experiment: HLA class I binding assay, A*6801

By UniProt entry, the sequences of proteins in these tests, tags left out. Where a name states a change or a piece, a line headed by the entry shows the natural chain unless it says otherwise.
UniProt P01889: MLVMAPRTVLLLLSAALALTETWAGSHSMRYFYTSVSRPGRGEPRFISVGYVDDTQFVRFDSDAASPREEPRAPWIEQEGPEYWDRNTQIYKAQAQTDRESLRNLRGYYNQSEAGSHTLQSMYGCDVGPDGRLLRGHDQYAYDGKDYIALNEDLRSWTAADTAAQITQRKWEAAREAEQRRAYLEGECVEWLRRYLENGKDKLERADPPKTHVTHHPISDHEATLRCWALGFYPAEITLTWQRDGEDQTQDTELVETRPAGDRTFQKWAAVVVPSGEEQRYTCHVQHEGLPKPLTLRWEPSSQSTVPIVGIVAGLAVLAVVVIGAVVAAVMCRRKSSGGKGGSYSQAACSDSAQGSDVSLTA
UniProt P04439: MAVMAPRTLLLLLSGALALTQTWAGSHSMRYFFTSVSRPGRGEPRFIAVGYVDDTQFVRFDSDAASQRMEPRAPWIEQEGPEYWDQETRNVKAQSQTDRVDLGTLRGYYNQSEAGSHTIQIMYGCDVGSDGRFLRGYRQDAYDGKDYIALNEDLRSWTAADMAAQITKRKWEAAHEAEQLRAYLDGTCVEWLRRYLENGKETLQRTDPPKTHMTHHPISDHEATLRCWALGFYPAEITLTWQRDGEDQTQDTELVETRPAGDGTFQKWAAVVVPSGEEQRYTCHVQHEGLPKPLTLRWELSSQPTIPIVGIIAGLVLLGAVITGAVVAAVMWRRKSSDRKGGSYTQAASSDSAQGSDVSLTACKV

Compound | IC50 (HLA-B*5401) | IC50 (HLA-B*5301) | IC50 (HLA-B*3501) | IC50 (HLA-A*3101) | IC50 (HLA-A*3301) | also measured
N=C(N)NCCC[C@H](NC(=O)[C@@H]1CCCN1C(=O)[C@@H](N)CO)C(=O)NCC(=O)N[C@@H](CO)C(=O)N[C@@H](CCCNC(=N)N)C(=O)N1CCC[C@H]1C(=O)N[C@@H](CO)C(=O)N[C@@H](Cc1c[nH]c2ccccc12)C(=O)O [Peptide 15.0042] | > 30 µM | > 30 µM | > 30 µM |  |  | 
CC(C)C[C@H](NC(=O)[C@@H](NC(=O)[C@@H](NC(=O)[C@H](Cc1ccccc1)NC(=O)[C@H](CO)NC(=O)[C@H](CS)NC(=O)[C@@H]1CCCN1C(=O)[C@@H](N)CC(C)C)[C@@H](C)O)[C@@H](C)O)C(=O)N1CCC[C@H]1C(=O)N[C@@H](C)C(=O)O [Peptide 16.0187] |  | > 30 µM |  |  |  | 
CSCC[C@H](NC(=O)[C@H](Cc1ccc(O)cc1)NC(=O)[C@H](C)NC(=O)CNC(=O)[C@H](Cc1ccccc1)NC(=O)CNC(=O)[C@H](CC(C)C)NC(=O)[C@@H](N)[C@@H](C)O)C(=O)N[C@@H](CO)C(=O)N[C@@H](CCCCN)C(=O)O [Peptide 1073.14] |  |  |  | > 30 µM |  | 
CC(C)C[C@H](NC(=O)[C@@H](N)Cc1c[nH]cn1)C(=O)N[C@@H](Cc1c[nH]cn1)C(=O)N[C@@H](C)C(=O)N1CCC[C@H]1C(=O)N[C@H](C(=O)NCC(=O)N[C@@H](CO)C(=O)NCC(=O)N[C@@H](CCCCN)C(=O)O)[C@@H](C)O [Peptide 1073.16] |  |  |  | > 30 µM | > 30 µM | 
CC(C)[C@H](NC(=O)CNC(=O)[C@H](CCCNC(=N)N)NC(=O)[C@@H](NC(=O)[C@H](CS)NC(=O)[C@@H](NC(=O)[C@H](C)N)C(C)C)[C@@H](C)O)C(=O)N[C@@H](C)C(=O)N[C@@H](CCCCN)C(=O)O [Peptide 1090.23] |  |  |  |  | > 30 µM | IC50 (HLA-A*6801): > 30 µM
CC(C)C[C@H](NC(=O)[C@@H]1CCCN1C(=O)[C@H](CS)NC(=O)CNC(=O)[C@H](Cc1c[nH]cn1)NC(=O)[C@@H](NC(=O)[C@@H](NC(=O)[C@@H]1CCCN1C(=O)[C@@H]1CCCN1)C(C)C)C(C)C)C(=O)O [Peptide 1292.17] | > 30 µM | > 30 µM | > 30 µM |  |  | 
